Consider six molecules from ChEMBL document CHEMBL4251644, “Synthesis and biological characterization of novel rose bengal derivatives with improved amphiphilicity for sono-photodynamic therapy” (Eur J Med Chem, 2018).

The structures appear in SMILES notation.

The subject of one assay is HepG2. In words: Photodynamic anticancer activity in human HepG2 cells preincubated for 2 hrs followed by light exposure at 27 J/cm2 for 30 mins and subsequent incubation for 24 hrs by MTT assay. The format is functional, cell-based. (Formazan colour is commonly taken as a measure of viable cells.)
For the molecule `O=C(O)CCCCCCCOC(=O)c1c(Cl)c(Cl)c(Cl)c(Cl)c1-c1c2cc(I)c(=O)c(I)c-2oc2c(I)c(O)c(I)cc12`, the Activity entry is “Dose-dependent effect”.
On the same count and under the same terms, next, `O=C(CCCCCCCOC(=O)c1c(Cl)c(Cl)c(Cl)c(Cl)c1-c1c2cc(I)c(=O)c(I)c-2oc2c(I)c(O)c(I)cc12)Nc1cccc2cccnc12`: “Dose-dependent effect”; `COCCOCCOCCOCCOC(=O)CCCCCCCOC(=O)c1c(Cl)c(Cl)c(Cl)c(Cl)c1-c1c2cc(I)c(=O)c(I)c-2oc2c(I)c(O)c(I)cc12`: “Dose-dependent effect”; `O=C(CCCCCCCOC(=O)c1c(Cl)c(Cl)c(Cl)c(Cl)c1-c1c2cc(I)c(=O)c(I)c-2oc2c(I)c(O)c(I)cc12)Nc1cccc2ccccc12`: “Dose-dependent effect”.
Same read-out and setting: under `O=C([O-])c1c(Cl)c(Cl)c(Cl)c(Cl)c1-c1c2cc(I)c(=O)c(I)c-2oc2c(I)c([O-])c(I)cc12.[Na+].[Na+]` [ROSE BENGAL SODIUM] stands “Dose-dependent effect”.
The same measure, in the same setting: next, `COCCOCCOC(=O)CCCCCCCOC(=O)c1c(Cl)c(Cl)c(Cl)c(Cl)c1-c1c2cc(I)c(=O)c(I)c-2oc2c(I)c(O)c(I)cc12`: “Dose-dependent effect”.

For the next assay, the system named is B16-F10. Nature of the assay: Photodynamic anticancer activity in mouse B16F10 cells preincubated for 2 hrs followed by light exposure at 27 J/cm2 for 30 mins and subsequent incubation for 24 hrs by MTT assay. The format is functional, cell-based.
With `O=C(O)CCCCCCCOC(=O)c1c(Cl)c(Cl)c(Cl)c(Cl)c1-c1c2cc(I)c(=O)c(I)c-2oc2c(I)c(O)c(I)cc12`, the Activity entry is “Dose-dependent effect”.
The same measure, in the same setting: under `O=C(CCCCCCCOC(=O)c1c(Cl)c(Cl)c(Cl)c(Cl)c1-c1c2cc(I)c(=O)c(I)c-2oc2c(I)c(O)c(I)cc12)Nc1cccc2cccnc12` stands “Dose-dependent effect”; under `COCCOCCOCCOCCOC(=O)CCCCCCCOC(=O)c1c(Cl)c(Cl)c(Cl)c(Cl)c1-c1c2cc(I)c(=O)c(I)c-2oc2c(I)c(O)c(I)cc12`, “Dose-dependent effect”.
On the same count and under the same terms, under `O=C(CCCCCCCOC(=O)c1c(Cl)c(Cl)c(Cl)c(Cl)c1-c1c2cc(I)c(=O)c(I)c-2oc2c(I)c(O)c(I)cc12)Nc1cccc2ccccc12` stands “Dose-dependent effect”; under `O=C([O-])c1c(Cl)c(Cl)c(Cl)c(Cl)c1-c1c2cc(I)c(=O)c(I)c-2oc2c(I)c([O-])c(I)cc12.[Na+].[Na+]` [ROSE BENGAL SODIUM], “Dose-dependent effect”; under `COCCOCCOC(=O)CCCCCCCOC(=O)c1c(Cl)c(Cl)c(Cl)c(Cl)c1-c1c2cc(I)c(=O)c(I)c-2oc2c(I)c(O)c(I)cc12`, “Dose-dependent effect”.

In another assay the test system is MCF7. Nature of the assay: Photodynamic anticancer activity in human MCF7 cells preincubated for 2 hrs followed by light exposure at 27 J/cm2 for 30 mins and subsequent incubation for 24 hrs by MTT assay. The format is functional, cell-based.
Regarding `O=C(O)CCCCCCCOC(=O)c1c(Cl)c(Cl)c(Cl)c(Cl)c1-c1c2cc(I)c(=O)c(I)c-2oc2c(I)c(O)c(I)cc12`, the Activity result was “Dose-dependent effect”.
For the molecule `O=C(CCCCCCCOC(=O)c1c(Cl)c(Cl)c(Cl)c(Cl)c1-c1c2cc(I)c(=O)c(I)c-2oc2c(I)c(O)c(I)cc12)Nc1cccc2cccnc12`, the Activity result is “Dose-dependent effect”.
Same read-out and setting: under `COCCOCCOCCOCCOC(=O)CCCCCCCOC(=O)c1c(Cl)c(Cl)c(Cl)c(Cl)c1-c1c2cc(I)c(=O)c(I)c-2oc2c(I)c(O)c(I)cc12` stands “Dose-dependent effect”.
The same measure, in the same setting: next, `O=C(CCCCCCCOC(=O)c1c(Cl)c(Cl)c(Cl)c(Cl)c1-c1c2cc(I)c(=O)c(I)c-2oc2c(I)c(O)c(I)cc12)Nc1cccc2ccccc12`: “Dose-dependent effect”; `O=C([O-])c1c(Cl)c(Cl)c(Cl)c(Cl)c1-c1c2cc(I)c(=O)c(I)c-2oc2c(I)c([O-])c(I)cc12.[Na+].[Na+]` [ROSE BENGAL SODIUM]: “Dose-dependent effect”; `COCCOCCOC(=O)CCCCCCCOC(=O)c1c(Cl)c(Cl)c(Cl)c(Cl)c1-c1c2cc(I)c(=O)c(I)c-2oc2c(I)c(O)c(I)cc12`: “Dose-dependent effect”.
